Experiment: GSH activity assessed as GSH adduct formation by measuring GSH/IS ratio

Which Ratio does the source give for `Cc1ccc(-n2nccn2)c(C(=O)N2CCN(c3nc4cc(Cl)ccc4o3)CC[C@H]2C)c1` [SUVOREXANT] here?
The Ratio was 0.1.

Source: ChEMBL document CHEMBL3769367, “Orexin Receptor Antagonists: New Therapeutic Agents for the Treatment of Insomnia” (J Med Chem, 2016)
